Test results published in PubChem BioAssay (NCI).
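Compound exposure: 48 hours, 5 concentrations, 96-well plates. The concentration for 50% growth inhibition is given as GI50. TGI denotes the concentration required for complete inhibition of growth.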

How the values were obtained:
Assay in all cases: NCI anticancer screen, dose series, 48 h
786-0 renal = tested on: 786-0 renal
A498 renal = tested on: A498 renal
A549 NSCLC = tested on: A549 NSCLC
ACHN renal = tested on: ACHN renal
BT-549 breast = tested on: BT-549 breast
CAKI-1 renal = tested on: CAKI-1 renal
CCRF-CEM leukemia = tested on: CCRF-CEM leukemia
COLO 205 colon = tested on: COLO 205 colon
DU-145 prostate = tested on: DU-145 prostate
EKVX NSCLC = tested on: EKVX NSCLC
HCC-2998 colon = tested on: HCC-2998 colon
HCT-116 colon = tested on: HCT-116 colon
HCT-15 colon = tested on: HCT-15 colon
HL-60(TB) leukemia = tested on: HL-60(TB) leukemia
HOP-62 NSCLC = tested on: HOP-62 NSCLC
HOP-92 NSCLC = tested on: HOP-92 NSCLC
HS 578T breast = tested on: HS 578T breast
HT29 colon = tested on: HT29 colon
IGROV1 ovarian = tested on: IGROV1 ovarian
K-562 leukemia = tested on: K-562 leukemia
KM12 colon = tested on: KM12 colon
LOX IMVI melanoma = tested on: LOX IMVI melanoma
M14 melanoma = tested on: M14 melanoma
MALME-3M melanoma = tested on: MALME-3M melanoma
MCF7 breast = tested on: MCF7 breast
MDA-MB-231 breast = tested on: MDA-MB-231 breast
MDA-MB-435 = tested on: MDA-MB-435
MDA-N = tested on: MDA-N
MOLT-4 leukemia = tested on: MOLT-4 leukemia
NCI-H226 lung = tested on: NCI-H226 lung
NCI-H23 lung = tested on: NCI-H23 lung
NCI-H322M lung = tested on: NCI-H322M lung
NCI-H460 lung = tested on: NCI-H460 lung
NCI-H522 lung = tested on: NCI-H522 lung
NCI/ADR-RES ovarian = tested on: NCI/ADR-RES ovarian
OVCAR-3 ovarian = tested on: OVCAR-3 ovarian
OVCAR-4 ovarian = tested on: OVCAR-4 ovarian
OVCAR-5 ovarian = tested on: OVCAR-5 ovarian
OVCAR-8 ovarian = tested on: OVCAR-8 ovarian
PC-3 prostate = tested on: PC-3 prostate
RPMI-8226 leukemia = tested on: RPMI-8226 leukemia
RXF 393 renal = tested on: RXF 393 renal
SF-268 CNS = tested on: SF-268 CNS
SF-295 CNS = tested on: SF-295 CNS
SF-539 CNS = tested on: SF-539 CNS
SK-MEL-2 melanoma = tested on: SK-MEL-2 melanoma
SK-MEL-28 melanoma = tested on: SK-MEL-28 melanoma
SK-MEL-5 melanoma = tested on: SK-MEL-5 melanoma
SK-OV-3 ovarian = tested on: SK-OV-3 ovarian
SN12C renal = tested on: SN12C renal
SNB-19 CNS = tested on: SNB-19 CNS
SNB-75 CNS = tested on: SNB-75 CNS
SR leukemia = tested on: SR leukemia
SW-620 colon = tested on: SW-620 colon
T-47D breast = tested on: T-47D breast
TK-10 renal = tested on: TK-10 renal
U251 CNS = tested on: U251 CNS
UACC-257 melanoma = tested on: UACC-257 melanoma
UACC-62 melanoma = tested on: UACC-62 melanoma
UO-31 renal = tested on: UO-31 renal

Structure (SMILES): FC1(F)SC2C(C1(F)F)C1(Cl)C(Cl)=C(Cl)C2(Cl)C1(Cl)Cl (stereo not given)
- GI50 (786-0 renal): 1.53 µM
- TGI (786-0 renal): 17.2 µM
- GI50 (A498 renal): 0.0482 µM
- TGI (A498 renal): 2.8 µM
- GI50 (A549 NSCLC): 0.315 µM
- TGI (A549 NSCLC): 17.7 µM
- GI50 (ACHN renal): 0.552 µM
- TGI (ACHN renal): 14.9 µM
- GI50 (BT-549 breast): 0.113 µM
- TGI (BT-549 breast): 14.1 µM
- GI50 (CAKI-1 renal): 2.28 µM
- TGI (CAKI-1 renal): 18.5 µM
- GI50 (CCRF-CEM leukemia): 1.34 µM
- TGI (CCRF-CEM leukemia): 7.61 µM
- GI50 (COLO 205 colon): 1.43 µM
- TGI (COLO 205 colon): 6.24 µM
- GI50 (DU-145 prostate): 2.18 µM
- TGI (DU-145 prostate): 18.2 µM
- GI50 (EKVX NSCLC): 1.37 µM
- TGI (EKVX NSCLC): 14.3 µM
- GI50 (HCC-2998 colon): 1.37 µM
- TGI (HCC-2998 colon): 19.8 µM
- GI50 (HCT-116 colon): 0.101 µM
- TGI (HCT-116 colon): 11.3 µM
- GI50 (HCT-15 colon): 0.451 µM
- TGI (HCT-15 colon): 17.5 µM
- GI50 (HL-60(TB) leukemia): 1.71 µM
- TGI (HL-60(TB) leukemia): 12.4 µM
- GI50 (HOP-62 NSCLC): 8.94 µM
- TGI (HOP-62 NSCLC): 21.9 µM
- GI50 (HOP-92 NSCLC): 0.0317 µM
- TGI (HOP-92 NSCLC): 0.366 µM
- GI50 (HS 578T breast): 0.515 µM
- TGI (HS 578T breast): 10.5 µM
- GI50 (HT29 colon): 1.33 µM
- TGI (HT29 colon): 13.9 µM
- GI50 (IGROV1 ovarian): 1.55 µM
- TGI (IGROV1 ovarian): 17.1 µM
- GI50 (K-562 leukemia): 1.34 µM
- TGI (K-562 leukemia): 13.7 µM
- GI50 (KM12 colon): 2.98 µM
- TGI (KM12 colon): 17.3 µM
- GI50 (LOX IMVI melanoma): 2.53 µM
- TGI (LOX IMVI melanoma): 11.6 µM
- GI50 (M14 melanoma): 1.31 µM
- TGI (M14 melanoma): 4.72 µM
- GI50 (MALME-3M melanoma): 1.11 µM
- TGI (MALME-3M melanoma): 5.09 µM
- GI50 (MCF7 breast): 0.463 µM
- TGI (MCF7 breast): 14.5 µM
- GI50 (MDA-MB-231 breast): 5.9 µM
- TGI (MDA-MB-231 breast): 25.6 µM
- GI50 (MDA-MB-435): 2.33 µM
- TGI (MDA-MB-435): 15.1 µM
- GI50 (MDA-N): 10.6 µM
- TGI (MDA-N): 28 µM
- GI50 (MOLT-4 leukemia): 0.893 µM
- TGI (MOLT-4 leukemia): 8.04 µM
- GI50 (NCI-H226 lung): 7.73 µM
- TGI (NCI-H226 lung): 29 µM
- GI50 (NCI-H23 lung): 1.42 µM
- TGI (NCI-H23 lung): 13.1 µM
- GI50 (NCI-H322M lung): 4.39 µM
- TGI (NCI-H322M lung): 12.3 µM
- GI50 (NCI-H460 lung): 2.21 µM
- TGI (NCI-H460 lung): 18.9 µM
- GI50 (NCI-H522 lung): 3.43 µM
- TGI (NCI-H522 lung): 21.2 µM
- GI50 (NCI/ADR-RES ovarian): 1.31 µM
- TGI (NCI/ADR-RES ovarian): 20.6 µM
- GI50 (OVCAR-3 ovarian): 0.151 µM
- TGI (OVCAR-3 ovarian): 6.83 µM
- GI50 (OVCAR-4 ovarian): 5.59 µM
- TGI (OVCAR-4 ovarian): 20.8 µM
- GI50 (OVCAR-5 ovarian): 1.9 µM
- TGI (OVCAR-5 ovarian): 13.8 µM
- GI50 (OVCAR-8 ovarian): 2.31 µM
- TGI (OVCAR-8 ovarian): 18.8 µM
- GI50 (PC-3 prostate): 1.86 µM
- TGI (PC-3 prostate): 16.4 µM
- GI50 (RPMI-8226 leukemia): 2.46 µM
- TGI (RPMI-8226 leukemia): 15.1 µM
- GI50 (RXF 393 renal): 0.0351 µM
- TGI (RXF 393 renal): 2.22 µM
- GI50 (SF-268 CNS): 1.86 µM
- TGI (SF-268 CNS): 22.1 µM
- GI50 (SF-295 CNS): 0.509 µM
- TGI (SF-295 CNS): 14.9 µM
- GI50 (SF-539 CNS): 5.19 µM
- TGI (SF-539 CNS): 21.9 µM
- GI50 (SK-MEL-2 melanoma): 2.67 µM
- TGI (SK-MEL-2 melanoma): 22.5 µM
- GI50 (SK-MEL-28 melanoma): 7.96 µM
- TGI (SK-MEL-28 melanoma): 22.3 µM
- GI50 (SK-MEL-5 melanoma): 0.485 µM
- TGI (SK-MEL-5 melanoma): 5.47 µM
- GI50 (SK-OV-3 ovarian): 5.73 µM
- TGI (SK-OV-3 ovarian): 14.2 µM
- GI50 (SN12C renal): 1.07 µM
- TGI (SN12C renal): 19.1 µM
- GI50 (SNB-19 CNS): 2.49 µM
- TGI (SNB-19 CNS): 18.2 µM
- GI50 (SNB-75 CNS): 0.539 µM
- TGI (SNB-75 CNS): 15 µM
- GI50 (SR leukemia): 1.99 µM
- TGI (SR leukemia): 12.9 µM
- GI50 (SW-620 colon): 0.433 µM
- TGI (SW-620 colon): 10.1 µM
- GI50 (T-47D breast): 1.03 µM
- TGI (T-47D breast): 13.7 µM
- GI50 (TK-10 renal): 7.36 µM
- TGI (TK-10 renal): 22 µM
- GI50 (U251 CNS): 0.14 µM
- TGI (U251 CNS): 15.3 µM
- GI50 (UACC-257 melanoma): 2.05 µM
- TGI (UACC-257 melanoma): 9.16 µM
- GI50 (UACC-62 melanoma): 2.47 µM
- TGI (UACC-62 melanoma): 8.33 µM
- GI50 (UO-31 renal): 0.724 µM
- TGI (UO-31 renal): 14.4 µM
